Source: US7183394B1, “Helical nucleopeptides” (priority 2000, dated 2007)

How the values were obtained:
[1] = test system: d(TA3G5A3T); test: Gel shift assay with d(TA3G5A3T)
[2] = test system: d(A3GGAGGA3); test: Gel shift assay with d(A3GGAGGA3); conditions: DNA 40 μM, TE-buffer, nondenaturing 14% PAGE at 4° C.

| Substance | binding in gel shift assay [1] | αPNA/DNA ratio at which there was no unbound single-stranded DNA [2] |
| --- | --- | --- |
| Ac-Cys^Acm-Lys-(Ser-Ala2-Lys)4-Ser-Gly-Lys-NH2 | No binding was observed | – |
| Ac-Cys^Acm-Lys-(Ser^C-Ala2-Lys)2-Ser^T-(Ala2-Lys-Ser^C)2-Gly-Lys-NH2 | – | 1.5 |
